The test system of the data set is N=C(N)NCCC[C@H](N)C(=O)O. In words: purified protein, by the assay type. Conditions: 37.0 °C.

As to Human NOS-2 (Homo sapiens), the Km (other: human NOS-2, estimated average) is listed as 2.38 (±1.5) μM. Regarding Murine NOS-2 (iNOS) (Mus musculus), the Km (other: murine NOS-2, estimated average) was 13.6 (±2.8) μM.

The record behind these values is US7538233B2, “Coumarins as iNOS inhibitors” (Aventis Pharmaceuticals Inc., priority 2003, dated 2009).
